According to ChEMBL document CHEMBL6177992, “A First-in-Class Hepatocyte Nuclear Factor 4 Agonist” (J Med Chem, 2025):
The source made the active and inactive calls. The calls are words filed in the database; no cut-off is given here.

target: T1, Hepatocyte nuclear factor 4-alpha (Homo sapiens) (UniProt P41235); assay: Agonist activity at human Gal4-HNFalpha-LBD expressed in HEK293T cells transfected with pFR-Luc/pRLSV40 assessed as relative luminescence at 10 uM measured after 14 to 16 hrs by hybrid reporter gene assay; format: cell-based; conditions: time lower 14.0 hrs, time upper […]
T1 sequence (whole entry): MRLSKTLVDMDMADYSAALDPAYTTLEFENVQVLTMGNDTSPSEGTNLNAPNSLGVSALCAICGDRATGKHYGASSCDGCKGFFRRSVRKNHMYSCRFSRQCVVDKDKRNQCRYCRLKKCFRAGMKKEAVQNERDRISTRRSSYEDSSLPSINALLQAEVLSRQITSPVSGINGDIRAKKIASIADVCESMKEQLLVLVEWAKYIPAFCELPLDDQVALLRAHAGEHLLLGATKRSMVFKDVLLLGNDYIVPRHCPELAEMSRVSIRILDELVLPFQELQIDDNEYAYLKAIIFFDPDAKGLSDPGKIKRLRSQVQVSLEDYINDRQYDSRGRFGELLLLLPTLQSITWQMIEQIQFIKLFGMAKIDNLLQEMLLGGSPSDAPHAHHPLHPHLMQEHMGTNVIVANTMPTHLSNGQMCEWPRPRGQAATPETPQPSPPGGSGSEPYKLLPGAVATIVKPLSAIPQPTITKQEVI

Row | SMILES | Activity
1 | O=C(O)c1ccc(C#Cc2ccccc2)cc1O | inactive
2 | O=C(O)c1cc(C#Cc2ccc(O)cc2)ccc1O | inactive
3 | Cc1cc(O)c(C(=O)O)cc1C#Cc1ccccc1 | inactive
4 | O=C(O)c1cc(C#Cc2ccccc2O)ccc1O | inactive
5 | O=C(O)c1cc(C#Cc2cccc(O)c2)ccc1O | inactive

target: T1, Hepatocyte nuclear factor 4-alpha (Homo sapiens); assay: Agonist activity at human Gal4-HNFalpha-LBD expressed in HEK293T cells transfected with pFR-Luc/pRLSV40 assessed as relative luminescence at 100 uM measured after 14 to 16 hrs by hybrid reporter gene assay; format: cell-based; conditions: time lower 14.0 hrs, time upper […]

Row | SMILES | Activity
6 | O=C(O)c1cc(O)cc(-c2ccccc2)c1 | inactive
7 | O=C(O)c1cc(-c2ccccc2)ccc1Cl | inactive
8 | O=C(O)c1ccc(O)c(-c2ccccc2)c1 | inactive
9 | O=C(O)c1cc(OCc2ccccc2)ccc1O | inactive
10 | CC(=O)c1cc(-c2ccccc2)ccc1O | inactive
11 | O=C(O)c1cc(-c2ccccc2)ccc1CO | inactive
12 | COc1ccc(-c2ccccc2)cc1C(=O)O | inactive
13 | O=C(O)c1c(O)cccc1-c1ccccc1 | inactive
